From PubChem BioAssay AID927 (National Center for Advancing Translational Sciences (NCATS), 2007)
Only a part is listed here, and it is no random draw. Some results for these compounds are left out of this collection, so the calls shown say nothing about other tests. The source made the active and inactive calls. The call rests on the fitted dose curve; in most records, active means well fitted inhibition curve with a large enough effect; inconclusive means small, poorly fitted or top-dose-only effect; inactive means no such curve, though single readings can be large or run the other way.

Amino acid sequences for entries named in this document (tags omitted).
UniProt O75604, whole entry: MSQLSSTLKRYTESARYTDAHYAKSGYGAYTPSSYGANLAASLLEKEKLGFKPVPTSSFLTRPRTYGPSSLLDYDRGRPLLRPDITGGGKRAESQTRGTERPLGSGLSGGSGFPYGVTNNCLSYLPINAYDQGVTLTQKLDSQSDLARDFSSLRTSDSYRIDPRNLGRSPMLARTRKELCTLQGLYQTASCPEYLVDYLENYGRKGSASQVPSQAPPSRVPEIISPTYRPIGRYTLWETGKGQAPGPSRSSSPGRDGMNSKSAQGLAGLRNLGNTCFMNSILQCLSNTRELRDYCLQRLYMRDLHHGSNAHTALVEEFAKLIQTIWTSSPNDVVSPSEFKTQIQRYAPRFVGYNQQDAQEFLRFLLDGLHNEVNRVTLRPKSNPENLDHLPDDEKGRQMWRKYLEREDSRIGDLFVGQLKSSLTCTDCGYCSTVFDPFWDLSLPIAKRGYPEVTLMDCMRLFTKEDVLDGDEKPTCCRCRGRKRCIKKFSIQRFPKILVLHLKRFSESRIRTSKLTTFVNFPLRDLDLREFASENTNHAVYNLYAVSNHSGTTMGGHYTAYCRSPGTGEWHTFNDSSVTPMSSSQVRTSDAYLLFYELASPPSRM

Each molecule was assayed against Ubiquitin carboxyl-terminal hydrolase 2 (Homo sapiens) (UniProt O75604) (assay: qHTS Assay for Inhibitors of Ubiquitin-specific Protease USP2a). Settings: USP2a enzymatic assay; at 38.3 µM (top of the series).
Source text: NIH Molecular Libraries Screening Centers Network [MLSCN]
NIH Chemical Genomics Center [NCGC]
PI Name: Nicholson, Ben. Progenra Inc, Malvern, PA
Homeostasis of cellular proteins is maintained through a combination of synthesis and degradation. The pathway that accounts for the majority of protein degradation is the ubiquitin-proteasomal pathway. Ubiquitin (Ub) is highly conserved in all cells and the generation of a multi-Ub chain typically targets proteins for degradation by the proteasome. However, ubiquitination is highly reversible and dynamic. Deubiquitination, the reverse process, is catalyzed through the action of enzymes referred to as isopeptidases or deubiquitinating enzymes (DUBs). […]
The reporter enzyme chosen is phospholipase A2 (PLA2), which has an absolute requirement for a free amino terminus. […] Thus, this coupled assay gives a fluorescent read-out, which is generated through the cleavage of the PLA2 reporter enzyme. […]
The assay buffer, prepared fresh at the day of the assay, contains 20mM Tris-HCl pH 8.0, 2mM CaCl2, 2mM beta-Mercaptoethanol, 0.1% DMSO. […] Plates were read immediately (0 Hour) on an Envision (Perkin Elmer) plate reader using the following wavelengths Ex 460nm /Em 535nm. Then, the assay plates were incubated for 2.5 hours and read again on the Envision using the same settings […]
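Further: plate controls were DMSO for no effect and NEM full inhibition control for full effect; nearly all actives have a fitted effect of over 60% in size.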

Row | Structure (SMILES) | activity change, negative = inhibition
1 | O=C(OC1CN2CCC1CC2)C(CO)(c1ccccc1)c1ccccc1 (configuration not stated) | inactive: 17.2%
2 | CN(C)c1cccc(C(=O)NCC2(N(C)C)CCCCC2)c1 | inactive: -8.64%
